# In PubChem BioAssay AID1645851 (National Center for Advancing Translational Sciences (NCATS), 2021):
# Chains of the proteins cited; added tags and fusions are not shown.
# UniProt Q92551, whole entry: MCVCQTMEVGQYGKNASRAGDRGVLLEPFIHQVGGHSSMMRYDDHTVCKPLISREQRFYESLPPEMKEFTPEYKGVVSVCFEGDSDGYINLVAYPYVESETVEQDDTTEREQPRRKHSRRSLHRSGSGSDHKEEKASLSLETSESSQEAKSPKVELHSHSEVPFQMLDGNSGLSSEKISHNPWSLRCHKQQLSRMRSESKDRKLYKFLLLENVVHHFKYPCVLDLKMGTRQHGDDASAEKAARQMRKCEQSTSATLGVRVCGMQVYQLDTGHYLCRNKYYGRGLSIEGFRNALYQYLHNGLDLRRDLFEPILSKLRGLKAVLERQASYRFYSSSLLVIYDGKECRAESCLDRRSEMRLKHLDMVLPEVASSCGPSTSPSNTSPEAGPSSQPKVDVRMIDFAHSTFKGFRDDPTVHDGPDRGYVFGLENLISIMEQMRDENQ
# Only a part is listed here, and it is no random draw. Some salts and complexes are drawn in separate pieces, as the source files them; their charges need not balance. Calls of active or inactive are those of the source. Rule as the data show it: active = activity change below about -25%; inactive = the rest.
# Target: Inositol hexakisphosphate kinase 1 (Homo sapiens) (UniProt Q92551)
# Assay: Primary qHTS assay for small molecule inhibitors of Inositol hexaphosphate kinase 1 (IP6K1); also: series mostly up to about 58 µM
# Settings: ADP-Glo luminescence, 2 h, hits give low values
# From the text: Assay Provider: Huijun Wei, M.S., Ph.D. School of Medicine, Johns Hopkins University, Baltimore, MD Inositol hexakisphosphate kinases (IP6Ks) catalyze pyrophosphorylation of inositol hexakisphosphate (IP6) into inositol 5-diphospho-1,2,3,4,6-pentakisphosphate (IP7), which is involved in numerous areas of cell physiology including glucose homeostasis, blood coagulation and neurological development. Inhibition of IP6Ks may be effective for the treatment of Type II diabetes, thrombosis, and psychiatric disorders. We performed a quantitative high throughput screen (qHTS) of 158,410 compounds for IP6K1 inhibitors using ankinase activity ADP-Glo Max assay. […] Medicinal chemistry SAR efforts in three chemical series identified potent IP6K1 inhibitors, which were further validated in an orthogonal LC-MS IP7 analysis.
# PROTOCOL TABLE SEQUENCE No. (e.g., 1, 2, 3, etc.); […] (e.g., Cells, Incubation, Reagent, etc.); VALUE and DESCRIPTION. 1. Reagent, 3 uL of 1.3 mM ATP and 130 uM IP6 mixture in assay buffer was dispensed to a white, 1536-well assay plate. 2. Compound, 23 nL of compounds of the top two doses (57.5 uM and 19.1 uM final concentration) of the libraries were dispensed into the mixture using the Kalypsis pintool. 3. Reagent, 1 uL of 2.4 uM IP6K1 was dispensed to the assay plates. 4. Incubation, 2 hr incubation at room temperature. 5. Reagent, 2 uL of ADP-Glo reagent was added to the wells. 6. Incubation, 1 hr incubation at room temperature. 7. Reagent, 4 uL or ADP-Glo substate was added to the wells. 8. Incubation, 45 min incubation at room temperature. 9. Detection, luminescence signal was detected using the ViewLux microplate imager (PerkinElmer).
# % is scaled to controls: 0 for no effect and ±100 for the full control effect.
row,Structure (SMILES),activity change
1,O=[N+]([O-])c1cccc([N+](=O)[O-])c1,inactive: -12.5%
2,C/C1=C2N=C(/C=C3N=C(/C(C)=C4\N=C(C(CC(N)=O)C4(C)CCC(=O)NCC(C)OP(=O)([O-])OC4C(CO)OC(n5cnc6cc(C)c(C)cc65)C4O)C4(C)N=C1C(CCC(N)=O)C4(C)CC(N)=O)C(CCC(N)=O)C\3(C)C)C(CCC(N)=O)C/2(C)CC(N)=O.[C-]#N.[Co] (stereo unspecified),inactive: 7.09%
3,OCCSCCO,inactive: 31.2%
4,C/C1=C2N=C(/C=C3N=C(/C(C)=C4\[N-][C@@](C)([C@@H]5N=C1[C@](C)(CCC(=O)NC[C@@H](C)OP(=O)([O-])O[C@H]1[C@@H](O)[C@@H](n6cnc7cc(C)c(C)cc76)O[C@@H]1CO)[C@H]5CC(N)=O)[C@@](C)(CC(N)=O)[C@@H]4CCC(N)=O)[C@@](C)(CC(N)=O)[C@@H]\3CCC(N)=O)C(C)(C)[C@@H]/2CCC(N)=O.[C-]#N.[Co+3],inactive: -6.11%
5,Cc1cccc([N+](=O)[O-])c1[N+](=O)[O-],inactive: -11%
6,CCOP(=O)(CC)Oc1ccc([N+](=O)[O-])cc1 (stereo unspecified),inactive: -5.99%
